Target: Prothrombin (Homo sapiens, UniProt P00734)
Experiment: In vitro inhibitory activity against human thrombin(IIa)

Question: Which Ki does the source give for `Cc1cc(N)nc(C)c1CNC(=O)[C@@H]1CCCN1C(=O)[C@H](N)C(C1CCCCC1)C1CCCCC1` here?
Answer: Its Ki is 3.9 nM.
